Values quoted from earlier work in patent publication US7361681B2, “Method of treating amytrophic lateral sclerosis using melatonin” (SYGNIS Bioscience GmbH & Co. KG, priority 2003, dated 2008).

Tested on: ALS
Conditions: Rowland New Engl J Med 2001; cited from earlier work

## Nc1nc2ccc(OC(F)(F)F)cc2s1 [RILUZOLE®, 2-amino-6-(trifluoromethoxy) benzothiazole]
  significance with respect to survival time: borderline significance
